Target: CK1δ (Homo sapiens, UniProt P48730)
Assay: PER3 nuclear translocation assay, HEK293 cells expressing CK1δ
Details: 1 μM

Chains of the proteins cited; added tags and fusions are not shown. Lines headed by an entry give the natural chain unless they say otherwise; changes in a name come on top.
UniProt P48730: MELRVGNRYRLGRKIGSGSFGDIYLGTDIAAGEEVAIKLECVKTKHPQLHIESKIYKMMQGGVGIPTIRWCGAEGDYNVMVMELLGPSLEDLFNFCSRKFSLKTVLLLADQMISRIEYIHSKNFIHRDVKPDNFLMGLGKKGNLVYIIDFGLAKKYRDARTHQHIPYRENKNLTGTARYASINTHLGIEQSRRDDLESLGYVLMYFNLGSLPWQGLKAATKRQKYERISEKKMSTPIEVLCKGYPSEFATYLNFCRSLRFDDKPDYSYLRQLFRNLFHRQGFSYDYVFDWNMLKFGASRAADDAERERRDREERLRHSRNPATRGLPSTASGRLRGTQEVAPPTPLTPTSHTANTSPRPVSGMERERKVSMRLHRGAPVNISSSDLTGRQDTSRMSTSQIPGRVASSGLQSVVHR

Nc1nccc(-c2c(-c3ccc(F)cc3)ncn2C2CCCCC2)n1 [PF-670462]
CK1δ-induced nuclear translocation of mCherry-PER3 (1 hour pre-incubation, 8 hours doxycycline, HEK293): also inhibited the nuclear translocation | mCherry-PER3 nuclear/cytoplasmic ratio, CK1δ (compared to TG001 or vehicle, n = 20 images): significantly decreased
